## Antibody variant affinities, Ab-14 heavy chain, assay B

Target: peptide PDVDLGDISGINAS, taken from heptad repeat 2 (HR2) of SARS-CoV-2 spike.

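The starting antibody came from a phage panning campaign against this peptide. Designed CDR sequences, proposed from the first random library and measured here. Group labels follow the data file (Ctrl: baseline library sampled from a position-specific scoring matrix, with some repeated check sequences; GPLM: also part of the Gaussian process libraries; Gen: genetic algorithm; a sequence that several methods proposed may carry one label only). In AlphaSeq, yeast of one mating type display the scFv and yeast of the other type display the target. Binding brings cells together so that they mate, and sequencing counts the barcode pairs among the diploids. The ratio of observed to expected reads was calibrated, replicate by replicate, on BCL2-family standards whose Kd was known from biolayer interferometry. Mating was done six times.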

Each scFv is VH, a (GGGGS)3 linker, VL, as in the parent Ab-14, and differs from it in the CDRs of the heavy chain only.
VH: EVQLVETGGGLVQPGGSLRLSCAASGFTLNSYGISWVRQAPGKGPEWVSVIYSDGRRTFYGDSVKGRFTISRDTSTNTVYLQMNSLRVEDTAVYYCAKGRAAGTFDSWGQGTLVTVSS
VL: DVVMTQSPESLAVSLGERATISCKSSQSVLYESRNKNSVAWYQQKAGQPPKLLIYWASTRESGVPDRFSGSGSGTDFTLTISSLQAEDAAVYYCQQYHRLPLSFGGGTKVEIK

Variants are written as CDR1, CDR2 and CDR3 of the heavy chain (limits as in the source). Parent: GFTLNSYGIS, VIYSDGRRTFYGDSVK, GRAAGTFDS.
Numbers give log10(Kd / nM), so 0 is 1 nM and 3 is 1 µM. Smaller is tighter.
Averages over replicates are reported, and they cover detected replicates only.
"ND" means that the variant was in the library but no mating with the target was seen in that replicate; the authors take this as a sign of poor binding, and no number exists.
Values of this round are not directly comparable with the first-round values of the same sequences.

CDR-H1,CDR-H2,CDR-H3,group,log10 Kd (nM) by replicate,"mean, log10 nM",signal with controls
GFTLNSYGGS,VIYSDGRRTFYGDSVK,GRAAGTFDS,Ctrl,0.74 0.52 0.12 0.13 0.37 0.38,0.38,0/18
GFTLNEYGIS,VIYSDGRRVFYGDSSK,GRAAGTFDS,Ctrl,ND ND ND 2.56 ND ND,2.56,0/18
GFTLQSYGIS,VIYSDGRRTFYGDSVR,GQAAGTFDS,Ctrl,1.73 2.16 0.69 1.86 ND 2.02,1.69,0/18
GEWLNSYGIS,VIYSDGVRTQYGDSVK,GRAAGTFDS,Ctrl,ND ND ND ND ND ND,ND,0/18
GFTLNSYGIS,VIYSDGRRTFYGDDVK,GRVAGTFDS,Ctrl,1.42 0.98 1.17 1.09 0.82 1.89,1.23,1/18 (2.05)
GFTLNSYGIS,VIYSDGRRTFYAQSVK,GEAAGTFDS,Ctrl,1.18 1.93 ND 2.48 1.47 1.11,1.64,1/18 (2.61)
GFTLNSYGIS,VIYSDGRRTFYGDSVK,GRAAGRYDS,Ctrl,ND ND ND ND ND ND,ND,0/18
GFTLNSYGIS,VIYSDGRRTFYGDSVK,GRQACFFPS,Ctrl,ND ND ND ND ND ND,ND,0/18
GFTLNSYGIS,VIYSDGRRTFYSDSVK,GRRKKTFDL,Ctrl,ND ND ND ND ND 2.49,2.49,1/18 (2.07)
GFTLLSYGIN,VIYSDGRRTFYGDSVK,GRAAGTFDS,Ctrl,ND ND ND ND ND ND,ND,0/18
GFTLNSYGIS,VIYSDGRRTMYIDSVK,GRLAGTPDS,Ctrl,ND ND ND 2.29 ND ND,2.29,1/18 (0.53)
RFSLLSYGIS,VIYSDGRRTFYGDSVK,HRAAGTFDS,Ctrl,ND 2.87 ND ND ND ND,2.87,0/18
GFTPNSYGIS,VIYSDGQQTFYGDSVK,GRAAGQFDL,Ctrl,ND ND ND ND 2.47 ND,2.47,0/18
GFTLNSYGIS,VIYSDGFRTFYEDSVK,GREAGTFDS,Ctrl,0.84 ND 1.74 1.87 2.44 2.23,1.82,0/18
GFDLNSYGIS,VIYSDGRRTFYHDSVK,GRAAGTFDS,Ctrl+GPLM_Gen,ND ND ND ND 1.14 ND; 0.55 0.70 0.09 0.81 0.78 1.01,0.73,0/36
GFTLNSYGIS,VIYSDGRKTFYGDSVK,GRTAGTFDS,Ctrl,ND ND ND ND ND 1.00,1.00,0/18
GFTLNSYGIS,VIYSDGRRTFYGDSVK,IRAAGTSIS,Ctrl,ND ND ND ND ND ND,ND,0/18
GFTLNSYGYS,VIYSDGRRTFYGDSVK,GRVPGTFDS,Ctrl,ND ND ND 2.06 ND ND,2.06,0/18
LFTLNSYGIS,VIYSDGRRTFYGDSVK,GRAAGTFDS,Ctrl,ND ND ND ND ND ND,ND,0/18
GFDLNSYGIS,VIYSDGRRTFYGDSVK,GPAAGTFNS,Ctrl,ND ND ND ND ND ND,ND,0/18
GFALNSYGIS,VIYSDGRRTFYGDSVK,GRWAGTFDS,Ctrl,ND 1.28 ND ND ND 2.60,1.94,0/18
GFHLNSYGIS,VIYSDGYRVAYNDSVK,GRIALTFDS,Ctrl,ND ND ND ND ND ND,ND,0/18
GFTLESYGIS,VIYSDGRRTFYGDSVK,GRAVGTFDS,Ctrl,ND ND 1.86 ND 1.82 ND,1.84,0/18
GIELNSYGIS,VIYSDGRRTFYKDSVK,GRAPGTFKS,Ctrl,ND ND ND ND ND ND,ND,0/18
GFTLNQYGIS,VIYSDGRRTFYGDSVK,GRAAQTFDS,Ctrl,ND ND ND ND ND ND,ND,1/18 (0.24)
GFELNEYGIS,VIYSDGRRTFYGDRVK,GRQAGTFDS,Ctrl,1.20 -0.04 0.39 0.37 0.89 0.50,0.55,0/18
GFTLNSYGIS,VIYADGRRTFYGDSVK,GRAAKTFTS,Ctrl,ND ND ND ND ND ND,ND,1/18 (0.81)
GFNLNSYGIS,VIYSDGRRTFYGDSVK,GRAAGTFLV,Ctrl,ND ND ND ND ND ND,ND,0/18
GDTLNSYGIS,VIYSDGRRTFYGDSVK,TRAAGTFDS,Ctrl,ND ND ND ND ND 2.31,2.31,0/18
GFTINEYGIS,VIYSDGRRTFYQDSVK,GRAAGTFDS,Ctrl,0.39 0.63 0.76 0.56 1.14 0.41,0.65,0/18
GFTLNSYGIS,VIYSDGRRTFYGDSVK,GREAATFDS,Ctrl,ND ND ND ND ND ND,ND,0/18

The last 5 entries again:

{"CDR-H1": "GFTLNSYGIS", "CDR-H2": "VIYADGRRTFYGDSVK", "CDR-H3": "GRAAKTFTS", "group": "Ctrl", "log10 Kd (nM) by replicate": "ND ND ND ND ND ND", "mean, log10 nM": "ND", "signal with controls": "1/18 (0.81)"}
{"CDR-H1": "GFNLNSYGIS", "CDR-H2": "VIYSDGRRTFYGDSVK", "CDR-H3": "GRAAGTFLV", "group": "Ctrl", "log10 Kd (nM) by replicate": "ND ND ND ND ND ND", "mean, log10 nM": "ND", "signal with controls": "0/18"}
{"CDR-H1": "GDTLNSYGIS", "CDR-H2": "VIYSDGRRTFYGDSVK", "CDR-H3": "TRAAGTFDS", "group": "Ctrl", "log10 Kd (nM) by replicate": "ND ND ND ND ND 2.31", "mean, log10 nM": "2.31", "signal with controls": "0/18"}
{"CDR-H1": "GFTINEYGIS", "CDR-H2": "VIYSDGRRTFYQDSVK", "CDR-H3": "GRAAGTFDS", "group": "Ctrl", "log10 Kd (nM) by replicate": "0.39 0.63 0.76 0.56 1.14 0.41", "mean, log10 nM": "0.65", "signal with controls": "0/18"}
{"CDR-H1": "GFTLNSYGIS", "CDR-H2": "VIYSDGRRTFYGDSVK", "CDR-H3": "GREAATFDS", "group": "Ctrl", "log10 Kd (nM) by replicate": "ND ND ND ND ND ND", "mean, log10 nM": "ND", "signal with controls": "0/18"}

Some sequences occur more than once in the pool; their replicates are listed entry by entry, parted by semicolons.
Background: pairings of all heavy chain designs with three empty control strains gave a value in 1% of cases (median 2.08, 5th percentile 0.84). Values in that range, when seen in few replicates, are hard to tell from nonspecific mating. The control count says in how many pairings with the empty strains this scFv gave a signal, with their mean in brackets.
The authors' rule: three or more of the six replicates give a measured affinity, fewer mean a poor binder.
Of ten entries with the parent sequence, four were seen in most replicates (averages 0.34 to 2.37), three in one and three in none, so single entries are noisy.

Reference: Li et al. 2023, doi:10.1038/s41467-023-39022-2. File: FLAb, binding data.